Among the data in ChEMBL document CHEMBL4732109, “Structural modifications in the distal, regulatory region of histamine H receptor antagonists leading to the identification of a potent anti-obesity agent” (Eur J Med Chem, 2021) are Ki values, retold here.

Amino acid sequences for entries named in this document (tags omitted). A change or cut given only in a name is not applied to a line headed by its entry.
UniProt Q9Y5N1: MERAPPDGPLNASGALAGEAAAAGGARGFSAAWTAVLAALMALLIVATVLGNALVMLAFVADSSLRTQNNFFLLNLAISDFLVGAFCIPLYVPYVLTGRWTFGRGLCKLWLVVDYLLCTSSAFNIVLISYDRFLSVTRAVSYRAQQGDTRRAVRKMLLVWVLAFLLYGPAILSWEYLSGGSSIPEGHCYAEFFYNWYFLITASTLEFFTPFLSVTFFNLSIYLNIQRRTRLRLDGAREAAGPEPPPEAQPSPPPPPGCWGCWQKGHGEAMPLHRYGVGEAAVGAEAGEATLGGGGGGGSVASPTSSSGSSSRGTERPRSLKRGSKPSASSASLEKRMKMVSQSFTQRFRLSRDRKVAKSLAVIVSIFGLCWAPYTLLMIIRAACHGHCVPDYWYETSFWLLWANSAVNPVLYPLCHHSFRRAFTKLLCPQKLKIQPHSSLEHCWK

For this assay, the target named is Histamine H3 receptor (Homo sapiens, UniProt Q9Y5N1). The experiment in a line: Displacement of [3H]UR-PI294 from human SP-FLAG-tagged H3R expressed in HEK293T cells measured after 60 to 120 mins by liquid scintillation counting analysis. The assay is classed as cell-based.

Usually Ki stands for the equilibrium dissociation constant of an inhibitor or competing ligand from its target. The molecule `O=C(c1ccc(OCCCc2cnc[nH]2)cc1)C1CC1` [CIPROXIFAN] yielded an inhibition constant Ki of 48.9 nM.
